Assay outcomes: PubChem, National Center for Advancing Translational Sciences (NCATS)
Most compounds without a hit are left out; they make up all but 0.44% or so of the library.
LMNA splice mod: modulators of lamin A splicing; HeLa LMNA splicing GFP/RFP minigene ratio, 48 h; Potency, µM (series often up to 46.1 µM), inactives show at the highest dose ratio change, negative = inhibition, usual class: inhibitors; 200,000 tested, 0.01% active; AID 1487; active means well fitted inhibition curve with a large enough effect in the signal ratio, with a control signal flat, not every such curve was filed as active; inconclusive means small, poorly fitted or top-dose-only effect, or effect the other way, or a change in a side signal; the % refers to the signal ratio; further: on the % scale 0 is the no-effect control and ±100 the full control effect
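Read-out is the ratio of GFP to DsRed2 object intensity, acquired by 488 nm laser-scanning cytometry on HeLa lamin A-EGFP minigene reporter cells. Compound incubation 48 hrs at 37 °C in Opti-MEM with 2% FBS; DMSO 0.5% final.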
BCR signal inh: chronic active BCR signaling inhibition. Potency, µM (series often up to 46.1 µM), without a hit: at the highest dose activity change, negative = inhibition, hits mostly inhibitors. ABC-DLBCL IkBa-CBG/CBR reporter, luminescence ratio, 4 h. AID 493014. 340,000 tested, 0.05% active; active means well fitted inhibition curve with a large enough effect in the signal ratio, with a control signal flat, not every such curve was filed as active; inconclusive means small, poorly fitted or top-dose-only effect, or effect the other way, or a change in a side signal; the % refers to the signal ratio;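 further: plate controls were basal doxycycline-induced cells for no effect and cells given 10 µM MG132 for full effect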
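TMD8 human ABC-DLBCL cells with doxycycline-inducible IκBα–green luciferase fusion and unfused red luciferase, in 0.5% FBS medium; compounds up to 46 uM, 4 h at 37C. Green/red luminescence ratio, filter-overlap corrected, fitted to concentration-response curves.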
Rango release inh: inhibition of RanGTP-driven Rango-importin beta dissociation | Biochemical FRET Rango-importin beta, RanGTP-induced dissociation | AID 540253 | O95149+P62826 | Potency, µM (top dose mostly 46.1 µM), for the others: top-dose activity change, negative = inhibition | 340,000 tested, 0.071% active; further: % of control where 0% means no effect; nearly all actives have a fitted effect of over 45% in size
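Two FRET readings bracket the reaction: one 5 min after compound meets Rango–importin beta, another 45 min after RanGTP-RCC1 (0.6 uM Ran, 0.2 uM RCC1, 2 mM GTP) is added. Only the second defines inhibition.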
KinaseGlo FLuc: Kinase-Glo luciferase inhibition (counter-screen). Kinase-Glo luciferase, ATP luminescence, 8 min. Potency, µM (highest dose often 38.3 µM), for inactives: at the top dose activity change, negative = inhibition, actives largely listed as inhibitors. 200,000 tested, 0.28% active; active means well fitted curve in the direction sought with a large enough effect; inconclusive means small, poorly fitted or top-dose-only effect, or another doubt; inactive means no such curve, though single readings can be large; an effect the other way counts as inactive or inconclusive; further: on the % scale 0 is the no-effect control and ±100 the full control effect; nearly all actives have a fitted effect of over 60% in size
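Substrate mix (final 50 mM imidazole pH 7.2, 50 mM KCl, 7 mM MgCl2, 10 uM ATP, 0.01% Tween 20, 0.05% BSA) plus pin-tool compound, then Kinase-Glo detection mix; 8 min ambient, luminescence read.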
Tb PFK block: blocks T. brucei phosphofructokinase; O15648; T. brucei PFK, ADP-Glo luminescence; Potency, µM (titrated, usually from 57.5 µM), inactives show at the highest dose activity, negative = inhibition, actives largely listed as inhibitors; 330,000 tested, 0.17% active; AID 485367; active means well fitted curve in the direction sought with a large enough effect; inconclusive means small, poorly fitted or top-dose-only effect, or another doubt; inactive means no such curve, though single readings can be large; an effect the other way counts as inactive or inconclusive;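 further: 0% = uninhibited 1x PFK enzyme wells and -100% = no-enzyme wells; nearly all actives have a fitted effect of over 60% in size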
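1.25 nM PFK with 0.5 mM F6P and 0.1 mM ATP in 0.1 M TEA pH 8.0, 5 mM MgCl2, incubated 45 min at room temperature; ADP measured by ADP-Glo luminescence; compounds titrated up to 57 uM.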
Rango-impB inh: inhibitors of Rango-importin beta complex formation. Q14974. Rango CFP/YFP FRET sensor + importin beta, 45 min. Potency, µM (series often up to 92.2 µM), inactives show at the highest dose inhibition of complex formation. 340,000 tested, 0.031% active. AID 540263;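 further: 0% = DMSO wells and 100% = buffer wells lacking importin beta; nearly all actives have a fitted effect of over 15% in size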
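FRET biosensor Rango (snurportin 1 IBB between N-terminal EYFP and C-terminal Cerulean), 50 nM in PBS/1 mM DTT/0.02% Tween-20/0.1% BSA, preincubated 5 min RT with compound; 0.125 microM importin beta added, 45 min RT, CFP/YFP FRET ratio read.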
* marks the source's active call; other numbers are inactive results; ? = inconclusive; . = no result given; [ ] = remark or other dose. Unless noted, the call rests on the fitted dose curve. Potency means the concentration at half of the fitted maximal effect.

Assay codes: A = LMNA splice mod; B = BCR signal inh; C = Rango release inh; D = KinaseGlo FLuc; E = Tb PFK block; F = Rango-impB inh
> Cc1onc(-c2ccccc2)c1-c1ccnc(N)n1
  A: .	B: -11.7%	C: ?	D: .	E: 1.4%	F: ?
> Cc1ccc(C)n1-c1ccc(-c2ccnc(N)n2)cc1
  A: 11.7%[46 µM]	B: -14.8%	C: 14.6µM*	D: -0.9%	E: 3.1%	F: ?
> O=C(NCCO)Nc1ccc2nc(-c3ccco3)c(-c3ccco3)nc2c1
  A: .	B: ?	C: .	D: -9.2%	E: 1.9µM*	F: .
> Cc1ccc(N2C(=O)C(F)(F)C2c2ccccc2)cc1 (stereo not drawn)
  A: -8.0%[46 µM]	B: 3.0%	C: 21.1%	D: 0.7%	E: -0.6%	F: 0.4%
> COc1ccc(OC)c(/C=C/c2ccc3cccc(O)c3n2)c1
  A: .	B: 11.2µM*	C: .	D: .	E: 3.9%	F: .
> Nc1nc(O)c(N=Nc2ccc(S(N)(=O)=O)cc2)c(=O)[nH]1
  A: .	B: 3.6%	C: -14.0%	D: .	E: 1.2%	F: -3.9%
> NS(=O)(=O)c1ccc(N=Nc2c[nH]c(=O)c(O)c2)cc1
  A: 8.6%[46 µM]	B: ?	C: 23.1µM*	D: -17.7%[7.66 µM]	E: -29.3%	F: ?
> CCCSc1nc(C)c(C(C)=O)cc1C#N
  A: 1.0%	B: 18.4µM*	C: -4.3%	D: 19.1%	E: -3.5%	F: 1.6%
> COc1ccc(OC)c(Nc2nc(=O)c3cccnc3s2)c1
  A: .	B: ?	C: 1.6%	D: 11.2µM*	E: -9.5%	F: 2.1%
> Cc1ccc(Nc2nc(=O)c3cccnc3s2)cc1
  A: ?	B: -0.3%	C: 1.6%	D: -18.6%	E: -2.3%	F: -0.4%
> Cn1c(=O)cc(OCCCC(=O)Nc2cccnc2)c2ccccc21
  A: ?	B: -4.6%	C: 1.3%	D: 3.6%	E: -2.4%[0.46 µM]	F: ?
> Cc1ccc(-c2nnc(Nc3ccccc3)o2)cc1
  A: 5.8%	B: ?	C: 1.8%	D: 12.6µM*	E: -11.9%	F: 1.4%
> Cc1ccc(NC(=O)Nc2nnc(-c3ccccc3)o2)cc1
  A: 9.5%[46 µM]	B: 4.6%	C: -4.9%	D: -1.0%	E: -0.1%	F: 0.3%
> CC(=O)N=Nc1[nH]c(N)c2ccccc12
  A: ?	B: 2.7%	C: -9.0%	D: 0.2%	E: 0.4%	F: 0.3%
> O=C(NCc1ccco1)/C(=C/c1ccc(C(F)(F)F)cc1)c1nc2ccccc2[nH]1
  A: ?	B: 10.8%	C: 18.4µM*	D: -5.5%	E: -2.2%	F: ?
> O=C(NCc1ccco1)/C(=C/c1cccc(C(F)(F)F)c1)c1nc2ccccc2[nH]1
  A: ?	B: ?	C: ?	D: 1.8%	E: ?	F: ?
> CCOc1ccc2c(c1)C(C)=CC(C)(C)N2S(=O)(=O)c1ccc(NC(C)=O)cc1
  A: .	B: ?	C: 16.4%	D: .	E: 0.9%	F: -1.7%
> CC1=CC(C)(C)N(S(=O)(=O)c2ccc(C)cc2)c2ccccc21
  A: ?	B: 23.1µM*	C: 1.5%	D: 1.1%	E: 2.9%	F: 0.4%
> COc1ccc2c(c1)C(C)=CC(C)(C)N2S(=O)(=O)c1ccc(NC(C)=O)cc1
  A: .	B: 4.47µM*	C: 32.3%	D: .	E: 3.2%	F: 2.5%
> CC1=CC(C)(C)N(S(=O)(=O)c2ccc(F)cc2)c2ccc(C)cc21
  A: -2.3%	B: ?	C: -3.5%	D: -1.4%	E: 1.0%	F: 0.0%
> Cn1c(N)c(N2CCCCC2)c(=O)n(CC(=O)Nc2ccc(Cl)c(Cl)c2)c1=O
  A: -17.2%	B: 4.5%	C: -15.0%	D: -3.6%	E: 1.1%	F: 6.5%
> CC(=O)Oc1cccc(N2C(=O)c3cccc4c([N+](=O)[O-])ccc(c34)C2=O)c1
  A: .	B: ?	C: 1.84µM*[inhibitor]	D: .	E: 0.8%	F: ?
> Cc1ccc(C(=O)O)cc1N1C(=O)c2cccc3c([N+](=O)[O-])ccc(c23)C1=O
  A: .	B: ?	C: ?	D: .	E: -7.0%	F: ?
> Cc1ccc(/C=C/C(=O)O)cc1S(=O)(=O)N1CCc2ccccc2C1
  A: -0.8%[46 µM]	B: 12.0%	C: -5.5%	D: 3.6%	E: -0.7%	F: -1.7%
> CCOc1cc(/C=N/Nc2nn3cnnc3c3ccccc23)ccc1O
  A: .	B: ?	C: -11.2%	D: .	E: -0.8%	F: 2.1%
> COc1cc(/C=N/Nc2nn3cnnc3c3ccccc23)ccc1O
  A: -10.3%	B: ?	C: -10.8%	D: 12.6µM*	E: 4.2%	F: 5.2%
> COc1cccc(/C=N/Nc2nn3cnnc3c3ccccc23)c1
  A: ?	B: ?	C: 0.8%	D: 3.55µM*	E: 5.0%	F: -0.5%
> O=C(Nc1ccccn1)c1ccc([N+](=O)[O-])o1
  A: -19.6%	B: 1.3%	C: -2.8%	D: -3.1%	E: -1.0%	F: 0.5%
> CSCCC1NC(=S)N(Cc2ccccc2)C1=O (stereo not drawn)
  A: .	B: 2.0%	C: 13.9%	D: .	E: 0.3%	F: -4.5%
> Cn1c(NC(=O)C2CCCO2)cc(=O)n(C)c1=O (stereo not drawn)
  A: 0.6%	B: 2.4%	C: 26.8%	D: 1.3%	E: -7.5%	F: -3.5%
> c1ccc2c(c1)Cn1c-2nc2ccccc21
  A: -3.4%	B: ?	C: 11.1%	D: 11.2µM*	E: -17.7%	F: -0.7%
> Brc1c(-c2ccccc2)nc2n1Cc1ccccc1-2
  A: .	B: ?	C: 10.3%	D: .	E: -5.5%	F: -1.6%
> COc1cccc(C(=O)Nc2sc3c(c2C#N)CCN(C(C)=O)C3)c1
  A: ?	B: 20µM*	C: ?	D: 2.5%	E: 3.8%	F: ?
> Cc1nnc(N2C(=O)C(O)=C(C(=O)c3ccco3)C2c2ccc(C(C)(C)C)cc2)s1 (stereo not drawn)
  A: -1.1%	B: -12.7%	C: 25.9µM*	D: 0.9%	E: -5.6%	F: ?
> CN(C)C(=O)N1CCC(C(=O)NCc2cccs2)CC1
  A: -5.5%	B: -0.2%	C: 18.1%	D: -0.2%	E: -2.1%	F: 1.8%
> COc1ccc(C(=O)N=c2sc3c(C)ccc(OC)c3n2C)cc1
  A: -8.8%	B: 12.1%	C: -0.5%	D: 12.6µM*	E: -4.0%	F: -0.3%
> Cc1ccc2cc(C(c3nnnn3Cc3ccccc3)N3CCc4ccccc43)c(=O)[nH]c2c1 (stereo not drawn)
  A: 9.0%	B: ?	C: 23.1µM*	D: -2.1%	E: 2.0%	F: ?
> Cc1ccc2[nH]c(=O)c(C(c3nnnn3Cc3ccccc3)N3CCc4ccccc43)cc2c1 (stereo not drawn)
  A: 10.6%	B: 11.6%	C: ?	D: -2.2%	E: 0.6%	F: ?
> O=[N+]([O-])c1cnc2nc(-c3ccncc3)nn2c1O
  A: -8.2%[46 µM]	B: ?	C: 0.0%	D: 11.2µM*	E: -7.0%	F: -5.3%
> Cc1cc2c(c(=O)o1)C1(C(=O)N(CC(=O)O)c3ccccc31)C(C#N)=C(N)O2 (stereo not drawn)
  A: 20.1%[0.0737 µM]	B: 4.5%	C: 14.6µM*[inhibitor]	D: 0.6%	E: 0.3%	F: ?
> CN1/C(=C\C=C2/SC(=S)N(CC(=O)O)C2=O)C(C)(C)c2ccccc21
  A: .	B: 19.6%	C: ?	D: -15.9%	E: -15.5%	F: 23.1µM*
> CN1CCS/C1=C\C=C1/SC(=S)N(CC(=O)O)C1=O
  A: .	B: -4.3%	C: ?	D: -0.6%	E: 2.3%	F: 58µM*
> CCN1C(=O)/C(=C/C=C2/SCCN2C)SC1=S
  A: 11.8%	B: ?	C: -18.2%	D: -18.2%	E: -0.7%	F: 9.1%
> CCN(CC)S(=O)(=O)c1cccc(C(=O)Nc2ccccc2C(=O)N2CCOCC2)c1
  A: -8.0%	B: ?	C: -1.5%	D: 2.1%	E: -16.9%	F: 3.8%
> C[C@H](CO)N1C[C@H](C)[C@@H](CN(C)C(=O)Nc2ccc(C(F)(F)F)cc2)Oc2c(NC(=O)Nc3ccc4c(c3)OCO4)cccc2C1=O
  A: .	B: -0.4%	C: ?	D: .	E: 0.6%	F: 1.9%
> Cc1csc(NC(=O)c2cccn2C)n1
  A: 0.9%	B: ?	C: 3.3%	D: ?	E: -11.0%	F: 0.7%

Part of the list above in order of SMILES length, ascending:
Assay codes: A = LMNA splice mod; B = BCR signal inh; C = Rango release inh; D = KinaseGlo FLuc; E = Tb PFK block; F = Rango-impB inh
> Brc1c(-c2ccccc2)nc2n1Cc1ccccc1-2
  A: .	B: ?	C: 10.3%	D: .	E: -5.5%	F: -1.6%
> O=C(Nc1ccccn1)c1ccc([N+](=O)[O-])o1
  A: -19.6%	B: 1.3%	C: -2.8%	D: -3.1%	E: -1.0%	F: 0.5%
> O=[N+]([O-])c1cnc2nc(-c3ccncc3)nn2c1O
  A: -8.2%[46 µM]	B: ?	C: 0.0%	D: 11.2µM*	E: -7.0%	F: -5.3%
